Results taken from ChEMBL document CHEMBL2311449, “Synthesis and evaluation of diphenylphosphinic amides and diphenylphosphine oxides as inhibitors of Kv1.5” (Bioorg Med Chem Lett, 2013).

Amino acid sequences for entries named in this document (tags omitted). A change or cut given only in a name is not applied to a line headed by its entry.
UniProt O15554, whole entry, looked up: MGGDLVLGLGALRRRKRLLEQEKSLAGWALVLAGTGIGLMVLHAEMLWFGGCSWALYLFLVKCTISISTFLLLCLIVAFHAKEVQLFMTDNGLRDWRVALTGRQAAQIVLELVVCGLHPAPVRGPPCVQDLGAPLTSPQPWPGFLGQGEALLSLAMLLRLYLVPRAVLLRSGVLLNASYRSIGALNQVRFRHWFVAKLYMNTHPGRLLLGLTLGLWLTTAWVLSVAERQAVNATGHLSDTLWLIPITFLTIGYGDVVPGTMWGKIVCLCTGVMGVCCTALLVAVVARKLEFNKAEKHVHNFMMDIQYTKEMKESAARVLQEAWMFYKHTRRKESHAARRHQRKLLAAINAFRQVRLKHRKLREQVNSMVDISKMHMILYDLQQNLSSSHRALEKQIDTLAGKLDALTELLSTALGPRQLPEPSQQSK
UniProt Q12809: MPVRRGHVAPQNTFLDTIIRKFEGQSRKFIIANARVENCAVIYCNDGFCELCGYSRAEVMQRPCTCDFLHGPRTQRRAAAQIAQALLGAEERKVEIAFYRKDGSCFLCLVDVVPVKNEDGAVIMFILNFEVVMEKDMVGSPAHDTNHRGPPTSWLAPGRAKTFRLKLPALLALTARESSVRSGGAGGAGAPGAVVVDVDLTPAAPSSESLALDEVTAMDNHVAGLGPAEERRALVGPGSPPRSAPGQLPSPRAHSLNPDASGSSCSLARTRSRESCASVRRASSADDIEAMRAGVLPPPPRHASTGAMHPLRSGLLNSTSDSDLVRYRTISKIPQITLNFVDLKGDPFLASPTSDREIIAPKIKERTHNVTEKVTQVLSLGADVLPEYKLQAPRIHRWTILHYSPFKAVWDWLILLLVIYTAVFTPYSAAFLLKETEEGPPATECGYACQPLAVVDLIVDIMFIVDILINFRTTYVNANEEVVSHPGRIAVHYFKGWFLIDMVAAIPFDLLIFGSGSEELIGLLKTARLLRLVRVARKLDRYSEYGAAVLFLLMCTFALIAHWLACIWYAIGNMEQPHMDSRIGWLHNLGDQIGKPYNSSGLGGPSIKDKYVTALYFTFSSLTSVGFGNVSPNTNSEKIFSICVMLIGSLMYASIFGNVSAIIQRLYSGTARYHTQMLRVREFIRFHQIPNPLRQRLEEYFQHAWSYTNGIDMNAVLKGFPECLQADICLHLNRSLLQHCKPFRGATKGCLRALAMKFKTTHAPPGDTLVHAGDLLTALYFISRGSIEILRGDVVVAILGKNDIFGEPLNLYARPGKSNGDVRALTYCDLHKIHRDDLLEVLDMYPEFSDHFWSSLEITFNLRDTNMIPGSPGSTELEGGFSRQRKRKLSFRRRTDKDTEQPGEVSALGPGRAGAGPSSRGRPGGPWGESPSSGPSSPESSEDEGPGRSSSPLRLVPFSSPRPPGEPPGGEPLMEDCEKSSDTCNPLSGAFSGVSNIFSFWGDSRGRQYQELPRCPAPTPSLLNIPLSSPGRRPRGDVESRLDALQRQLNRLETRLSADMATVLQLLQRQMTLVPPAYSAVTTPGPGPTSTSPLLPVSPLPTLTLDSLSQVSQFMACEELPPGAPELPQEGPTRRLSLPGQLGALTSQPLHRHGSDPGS
UniProt P22460, whole entry, looked up: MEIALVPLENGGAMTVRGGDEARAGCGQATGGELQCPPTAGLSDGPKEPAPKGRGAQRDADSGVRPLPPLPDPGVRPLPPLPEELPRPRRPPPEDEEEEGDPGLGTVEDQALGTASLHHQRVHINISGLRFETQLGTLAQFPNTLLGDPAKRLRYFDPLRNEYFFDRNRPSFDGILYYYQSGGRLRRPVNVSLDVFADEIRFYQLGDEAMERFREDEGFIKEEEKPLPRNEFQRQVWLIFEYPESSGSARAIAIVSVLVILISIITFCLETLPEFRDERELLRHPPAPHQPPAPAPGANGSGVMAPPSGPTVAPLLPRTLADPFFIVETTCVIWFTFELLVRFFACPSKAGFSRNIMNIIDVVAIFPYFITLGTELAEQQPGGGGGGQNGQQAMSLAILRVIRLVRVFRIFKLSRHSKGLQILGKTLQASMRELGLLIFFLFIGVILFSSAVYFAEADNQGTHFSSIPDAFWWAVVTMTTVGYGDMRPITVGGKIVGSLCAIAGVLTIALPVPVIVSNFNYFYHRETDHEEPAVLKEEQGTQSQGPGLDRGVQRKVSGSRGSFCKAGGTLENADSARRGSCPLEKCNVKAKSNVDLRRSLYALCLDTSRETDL

Columns and labels:
[1] = target: Intermediate conductance calcium-activated potassium channel protein 4 (Homo sapiens, UniProt O15554)
[2] = target: Voltage-gated inwardly rectifying potassium channel KCNH2 (Homo sapiens, UniProt Q12809)
[3] = target: Potassium voltage-gated channel subfamily A member 5 (Homo sapiens, UniProt P22460); details: cho

Compound: CCCN(c1ccon1)P(=O)(c1ccccc1)c1ccccc1
- IC50 [1]: 18 µM
- IC50 [2]: > 33 µM
- IC50 [3]: 0.59 µM
